Assay results: paper PMC4501791, “Molecular Design, Synthesis and Trypanocidal Activity of Dipeptidyl Nitriles as Cruzain Inhibitors” (PLoS Neglected Tropical Diseases, 2015)

Chains of the proteins cited; added tags and fusions are not shown. Residues count along the entry.
UniProt P25779, 123-337 limits assumed: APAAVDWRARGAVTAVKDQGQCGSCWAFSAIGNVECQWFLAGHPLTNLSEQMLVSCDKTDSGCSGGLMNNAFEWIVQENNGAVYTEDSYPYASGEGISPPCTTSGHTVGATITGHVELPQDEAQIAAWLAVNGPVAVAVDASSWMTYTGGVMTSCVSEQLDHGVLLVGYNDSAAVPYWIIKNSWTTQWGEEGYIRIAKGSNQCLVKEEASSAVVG

Biological target: cruzain (Trypanosoma cruzi, UniProt P25779)
Details: 37°C, pH 5.5, substrate Z-FR-AMC
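Note: fluorometric read-out of substrate hydrolysis at excitation 355 nm and emission 460 nm, initial rates over 5 min, Ki from nonlinear kinetic fits, duplicate runs.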

pKi: 5.2
Compound: N#CCNC(=O)[C@@H](Cc1ccccc1)NC(=O)c1ccccc1
